# OPERA 2.9 data: logP (octanol/water) values

Values as listed in the OPERA 2.9 repository of K. Mansouri.

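OPERA's authors assembled the values from existing databases and did not measure them anew. The files give a single number for a compound and property, which may rest on several reports. How each value was measured is not recorded, so precision varies. Where a salt, mixture or single isomer is drawn, the source does not say that exactly this form was tested. Some entries may be limits or estimates that an upstream database listed as plain numbers.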

The octanol-water partition coefficient is given as log10; larger values mean a more lipophilic compound. The databases behind each value are named after "via".

| structure (SMILES) | logP | via |
|---|---|---|
| CN(C)N | -0.4 | OCHEM, eChemPortal |
| CC(C)=CC1C(C(=O)OC(C#N)c2cccc(Oc3ccccc3)c2)C1(C)C (configuration not stated) | 6.29 | PubChem |
| C[N+](C)(C)CC1COCO1.[I-] (configuration not stated) | -3.03 | OCHEM |
| C[C@H]1CC(=O)C=C2CC[C@@H]3[C@H](CC[C@]4(C)C(=O)CC[C@@H]34)[C@]21C | 2.65 | eChemPortal |
| N#CNC1=NCCS1 | -0.06 | eChemPortal |
| c1cc(N(CC2CO2)CC2CO2)ccc1Cc1ccc(N(CC2CO2)CC2CO2)cc1 (configuration not stated) | 2.12 | eChemPortal |
| O=S(=O)(NS(=O)(=O)C(F)(F)F)C(F)(F)F | -0.771 | eChemPortal |
| CCN(CCCl)c1ccc(C=O)cc1 | 2.51 | eChemPortal |
| O=C(O)CCCC(=O)OOC(=O)CCCC(=O)O | -0.4 | eChemPortal |
| c1cncc(CC2CCCCN2)c1 (configuration not stated) | 1.49 | OCHEM |
| Cl.N=C(Nc1ccccc1)Nc1ccccc1 | -1.77 | eChemPortal |
| CN(CC(=O)[O-])C(=N)NP(=O)([O-])O.[Na+].[Na+] | -1.17 | eChemPortal |
| CCCCP(CCCC)CCCC | 3.05 | eChemPortal |
| C=CCc1cc(C(C)(C)c2ccc(O)c(CC=C)c2)ccc1O | 4.12 | eChemPortal |
| CC(=O)OC(c1ccccc1)C(Cl)(Cl)Cl (configuration not stated) | 3.518 | eChemPortal |
| CC(C)CCOC(=O)Cc1ccccc1 | 4.08 | eChemPortal |
| O=P(N1CCOCC1)(N1CCOCC1)N1CCOCC1 | -0.98 | eChemPortal |
| CC(C)OC(=O)OOC(=O)OC(C)C | 2.73 | eChemPortal |
| [C-]#[O+] | 0.83 | PubChem |
| CC(=O)OC1CC2(O)C3CCC4CC(O)CCC4(C)C3CCC2(C)C1C1=CC(=O)OC1 (configuration not stated) | 1.93 | OCHEM |
| N#CC1(N=NC2(C#N)CCCCC2)CCCCC1 | 3.256 | eChemPortal |
| N#CC(F)(C(F)(F)F)C(F)(F)F | 4.3 | eChemPortal |
| CN(C)C(=S)[S-].[Na+] | -2.305 | eChemPortal |
| CCCCNC(=O)OCC#CI | 2.845 | eChemPortal |
| COC(C)(C)CC(C)(C#N)N=NC(C)(C#N)CC(C)(C)OC (configuration not stated) | 2.3 | eChemPortal |
| CCN(C)C(=O)Oc1cccc([C@H](C)N(C)C)c1 | 2.3 | PubChem |
| CN(C)Cc1nnc2n1-c1ccc(Cl)cc1C(c1ccccc1)=NC2 | 4.4 | PubChem |
| CCOC(=O)C1(c2ccccc2)CCN(CCc2ccc(N)cc2)CC1 | 3.7 | PubChem |
| ClCCCCCCCCCCCl | 4.51 | eChemPortal |
| CCP(=O)([O-])CC.[Na+] | -1.88 | eChemPortal |
| COc1cccc(C[N+](C)(C)C)c1.[Br-] | -1.9 | OCHEM |
| CC(C)OC(=O)[C@H](C)N[P@](=O)(Oc1ccccc1)Oc1c(F)c(F)c(F)c(F)c1F | 4.1 | eChemPortal |
| CC(C)(c1cc(Br)c(OCC2CO2)c(Br)c1)c1cc(Br)c(OCC2CO2)c(Br)c1 (configuration not stated) | 6.115 | eChemPortal |
| CCCCCCCCCCCC#N | 4.9 | OFMPub |
| CCS(=O)c1c(C#N)nn(-c2c(Cl)cc(C(F)(F)F)cc2Cl)c1N (configuration not stated) | 2.9 | eChemPortal |
| CC(C)(C)C(=O)O[C@H]1CC[C@]2(C)[C@H]3CC[C@]4(C)C(=O)[C@H]5C[C@H]5[C@H]4[C@@H]3[C@@H](O)[C@H]3O[C@]32C1 | 3.6 | eChemPortal |
| C[C@]12CC[C@H]3[C@@H](C=CC4=CC(=O)CC[C@@H]43)[C@@H]1CC[C@@H]2O (stereo in doubt) | 3.1 | eChemPortal |
| CC(C)(C1CCC(O)CC1)C1CCC(O)CC1 (configuration not stated) | 2.35 | eChemPortal |
| CC(C)OC(=O)NP(N)(N)=O | 0.5 | eChemPortal |
| COc1cc(OC)nc(NC(=O)NS(=O)(=O)c2cc(NC=O)ccc2C(=O)N(C)C)n1 | -0.78 | PubChem |
| F/C(=C(/F)C(F)(C(F)(F)F)C(F)(F)F)C(F)(F)F | 4.1 | eChemPortal |
| Cc1ccc(-c2c(Cl)nc(C#N)n2S(=O)(=O)N(C)C)cc1 | 3.2 | PubChem |
| N#CCO | -1.13 | OCHEM, PubChem |
| Cc1cccnc1C[N+](C)(C)C.[Br-] | -2.9 | OCHEM |

A selection of 4 entries from above:

| structure (SMILES) | logP | via |
|---|---|---|
| CN(C)N | -0.4 | OCHEM, eChemPortal |
| CN(CC(=O)[O-])C(=N)NP(=O)([O-])O.[Na+].[Na+] | -1.17 | eChemPortal |
| CC(C)OC(=O)OOC(=O)OC(C)C | 2.73 | eChemPortal |
| CCCCCCCCCCCC#N | 4.9 | OFMPub |